FireProtDB (doi:10.1016/s0022-2836(02)01221-4)
“And” between values parts separate entries of the source, which are not always exact repeats. Equal entries are not always repeated.

B1: Alpha-1-antitrypsin, P01009 (parent)
chain: MPSSVSWGILLLAGLCCLVPVSLAEDPQGDAAQKTDTSHHDQDHPTFNKITPNLAEFAFSLYRQLAHQSNSTNIFFSPVSIATAFAMLSLGTKADTHDEILEGLNFNLTEIPEAQIHEGFQELLRTLNQPDSQLQLTTGNGLFLSEGLKLVDKFLEDVKKLYHSEAFTVNFGDTEEAKKQINDYVEKGTQGKIVDLVKELDRDTVFALVNYIFFKGKWERPFEVKDTEEEDFHVDQVTTVKVPMMKRLGMFNIQHCKKLSSWVLLMKYLGNATAIFFLPDEGKLQHLENELTHDIITKFLENEDRRSASLHLPKLSITGTYDLKSVLGQLGITKVFSNGADLSGVTEEAPLKLSKAVHKAVLTIDEKGTEAAGAMFLEAIPMSIPPEVKFNKPFVFLMIEQNTKSPLFMGKVVNPTQK

Variants of: B1
Conditions: Homo sapiens, pH 7.8, Tris-HCl 50 mM, NaCl 50 mM, reversible: yes, structure 1QLP, whole UniProt chain shown; for denaturant midpoint (higher = more stable): 25 °C, Urea, Fluorescence, transition: 3; for Tm / change of melting temperature, mutant - wild type (higher = more stable): Thermal, CD

Row | Variant | denaturant midpoint (higher = more stable) | Tm [°C] | change of melting temperature, mutant - wild type (higher = more stable) [°C]
1 | K355I | 2.76 M and 5.46 M | 61 | 3
2 | K355T | 5.32 M | 57 | -1
3 | K355V | 2.7 M and 5.8 M | 62 | 4
4 | K355F | 3.04 M | 64 | 6
5 | S354R |  | 52 | -4
